Test results taken from patent EP4831169A1, “NOVEL COMPOUND USED AS CBP/P300 INHIBITOR, AND PHARMACEUTICAL COMPOSITION FOR PREVENTING OR TREATING CANCER, INFLAMMATORY DISORDERS, OR AUTOIMMUNE DISEASES COMPRISING SAME AS ACTIVE INGREDIENT” (dated 2026).
pIC50: −log10 of the molar value.

Chains of the proteins cited; added tags and fusions are not shown. Residues count along the entry.
UniProt Q92793, 1085-1192 limits assumed: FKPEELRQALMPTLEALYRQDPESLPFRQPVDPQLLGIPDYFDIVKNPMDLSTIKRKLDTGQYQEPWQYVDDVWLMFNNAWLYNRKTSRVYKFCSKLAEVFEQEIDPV

How the values were obtained:
CBP BRD protein = CBP BRD protein (Homo sapiens, UniProt Q92793); test: CBP bromodomain TR-FRET inhibitory activity assay; details: read-out: CBP BRD IC50, Table 3
Protocol: A time resolved fluorescence resonance energy transfer (TR-FRET) experiment was used to verify the activity of CBP bromodomain.
The assay was performed in a final volume of 14 µL, optimized based on a CREBBP time resolved fluorescence resonance energy transfer (TR-FRET) assay kit (BPS Bioscience, cat. 32619) to maximize an assay window, and performed in a final volume of 14 µL, while maximizing the assay window. A TR-FRET fluorescence acceptor and a Tb donor were diluted in an assay buffer containing 2-[4-(2-hydroxyethyl)piperazin-1-yl]ethanesulfonic acid (HEPES) (hereafter, referred to as an assay buffer, BPS Bioscience, cat. 33012), and 3 µL of each solution was transferred to all wells of a white 384-low-volume well plate (Corning, cat. 4513). 2 µL of 4X Ac-H4 peptide (final concentration 85 nM) was transferred to high control wells and test wells. Each compound was prepared at 10 concentration points by serially diluting 3-fold from the highest concentration in a dimethyl sulfoxide solvent. The compound at each concentration was then diluted in the assay buffer to prepare a diluted compound solution that was 4-fold more concentrated than the final concentration. 2 µL of each compound or dimethyl sulfoxide prepared in this way was distributed into an assay plate so that the final test concentration was a minimum of 0.5 µM to a maximum of 10 µM (final dimethyl sulfoxide concentration 1%). 6 µL of 1X assay buffer was added to low control wells and 2 µl was added to high control and test wells. Then, 2 µL of 4X CBP BRD protein (final concentration 7.5 nM, BPS bioscience, cat 31128) was added to initiate a PPI reaction. The plate was reacted at room temperature for 2 hours before measuring the signal. The TR-FRET signal was measured using an EnVision Multilabel plate reader (PerkinElmer; Mirror LNACE/DELFIA Dual/Bias). For data analysis, the values of each well were obtained using a TR-FRET ratio ((Signal 665 nm/Signal 615 nm)×20000). Data analysis was performed using the TR-FRET ratio ((Signal 665 nm/Signal 615 nm)×20000). Data were reported as percent inhibition compared to control wells based on the following equation: %Activity = ((FRETcompound - FRETLow av)/(FRETHigh av - FRETLow av))×100. IC50 analysis was determined by standard 4 parameter curve fitting according to an algorithm using GraphPad Prism 7.0 (GraphPad Software Inc., La Jolla, CA, USA). All data are expressed as mean ± standard error of the mean (SEM).

BRD4 (BD1) protein = BRD4 (BD1) protein (Homo sapiens, UniProt O60885); test: BRD4 bromodomain TR-FRET inhibitory activity assay; details: read-out: BRD4 (BD1) IC50, Table 4
Protocol: BRD inhibitory activity was measured using a time resolved fluorescence resonance energy transfer (TR-FRET) experiment to verify the activity of BRD4 bromodomain.
The assay was performed in a final volume of 14 µL, optimized based on a CREBBP time resolved fluorescence resonance energy transfer (TR-FRET) assay kit (BPS Bioscience, cat. 32613) to maximize an assay window, and performed in a final volume of 14 µL, while maximizing the assay window. A TR-FRET fluorescence acceptor and a Tb donor were diluted in an assay buffer containing 2-[4-(2-hydroxyethyl)piperazin-1-yl]ethanesulfonic acid (HEPES) (hereafter, referred to as an assay buffer, BPS Bioscience, cat. 33012), and 3 µL of each solution was transferred to all wells of a white 384-low-volume well plate (Corning, cat. 4513). 2 µL of 4X Ac-H4 peptide (final concentration 15 nM) was transferred to high control wells and test wells. Each compound was prepared at 10 concentration points by serially diluting 3-fold from the highest concentration in a dimethyl sulfoxide (DMSO) solvent. The compound at each concentration was then diluted in the assay buffer to prepare a diluted compound solution that was 4-fold more concentrated than the final concentration. 2 µL of each compound or dimethyl sulfoxide prepared in this way was distributed into an assay plate so that the final test concentration was a minimum of 0.5 µM to a maximum of 10 µM (final DMSO concentration 1%). 6 µL of 1X assay buffer was added to low control wells and 2 µL was added to high control and test wells. Then, 2 µL of 4X BRD4 (BD1) protein (final concentration 7.5 nM, BPS bioscience, cat 31040) was added to initiate a PPI reaction. The plate was reacted at room temperature for 2 hours before measuring the signal. The TR-FRET signal was measured using an EnVision Multilabel plate reader (PerkinElmer; Mirror LNACE/DELFIA Dual/Bias). For data analysis, the values of each well were obtained using the TR-FRET ratio ((Signal 665 nm/Signal 615 nm)×20000). Data analysis was performed using the TR-FRET ratio ((Signal 665 nm/Signal 615 nm)×20000). Data were reported as percent inhibition compared to control wells based on the following equation: %Activity = ((FRETcompound - FRETLow av)/(FRETHigh av - FRETLow av))×100. IC50 analysis was determined by standard 4 parameter curve fitting according to an algorithm using GraphPad Prism 7.0 (GraphPad Software Inc., La Jolla, CA, USA). All data are expressed as mean ± standard error of the mean (SEM).

Row | SMILES | pIC50 (CBP BRD protein) | pIC50 (BRD4 (BD1) protein)
1 | COc1ccc(-c2cc3nc(-c4cncn4C)n(-c4cc(C5CCOCC5)c5c(c4)n(C)c(=O)n5C)c3cc2F)cc1Cl | 5.30 to 6.30 | < 5.30
2 | Cc1nc2cc(-c3cnn(C)c3)c(C(=O)O)cc2n1-c1ccc2c(c1)n(C)c(=O)n2C | < 5.30 | < 5.30
3 | CC(=O)Nc1ccc(-c2cc3nc(-c4cncn4C)n(-c4cc(C5=CCN(C)CC5)c5c(c4)n(C)c(=O)n5C)c3cc2F)cc1 | > 6.30 | < 5.30
4 | CNS(=O)(=O)c1ccc2nc(-c3c[nH]c4cc(C)ccc34)n(-c3cc(C4CCOCC4)c4c(c3)n(C)c(=O)n4C)c2c1 | > 6.30 | < 5.30
5 | Cn1cc(-c2cc3nc(-c4cncn4C)n(-c4cc(NCCC(F)(F)F)c5c(c4)n(C)c(=O)n5C)c3cc2F)cn1 | > 6.30 | < 5.30
6 | Cc1ncc(-c2cc3nc(C(C)(C)C)n(-c4cc(C5CCOCC5)c5c(c4)n(C)c(=O)n5C)c3cc2C(F)F)s1 | > 6.30 | < 5.30
7 | Cn1cc(-c2cc3nc(-c4cncn4C)n(-c4cc(N5CCN(C(=O)OC(C)(C)C)CC5)c5c(c4)n(C)c(=O)n5C)c3cc2F)cn1 | > 6.30 | < 5.30
8 | Cn1cncc1-c1nc2cc(-c3ccc4c(c3)NC(=O)CO4)c(F)cc2n1-c1cc(C2CCOCC2)c2c(c1)n(C)c(=O)n2C | > 6.30 | < 5.30
9 | CC(=O)Nc1ccc(-c2cc3nc(-c4cncn4C)n(-c4cc(C5CCOCC5)c5c(c4)n(C)c(=O)n5C)c3cc2F)cc1 | > 6.30 | 5.30 to 6.30
10 | CC(C)Oc1cc(-n2c(-c3cncn3C)nc3cc(-c4cnn(C)c4)c(C(F)(F)F)cc32)cc2c1n(C)c(=O)n2C | > 6.30 | < 5.30
11 | Cc1ccc2c(-c3nc4cc(Br)ncc4n3-c3ccc4c(c3)n(C)c(=O)n4C)c[nH]c2c1 | < 5.30 | < 5.30
12 | C=Cn1cc(-c2cc3nc(C(C)(C)C)n(-c4cc(N5CC(C)(N(C)C)C5)c5c(c4)n(C)c(=O)n5C)c3cc2C(F)F)cn1 | > 6.30 | < 5.30
13 | COc1cc(-c2cc3nc(C(C)(C)C)n(-c4cc(N5CC(C)(O)C5)c5c(c4)n(C)c(=O)n5C)c3cc2C(F)F)ccn1 | > 6.30 | < 5.30
14 | CNC(=O)c1ccc(-c2cc3nc(-c4cncn4C)n(-c4ccc5c(c4)n(C)c(=O)n5C)c3cc2C(=O)O)cc1F | > 6.30 | < 5.30
15 | Cc1ncc(-c2cc3nc(-c4cncn4C)n(-c4cc(NC(C)C)c5c(c4)n(C)c(=O)n5C)c3cc2F)s1 | > 6.30 | < 5.30
16 | Cn1cc(-c2cc3nc(-c4cncn4C)n(-c4cc(OC5CCOCC5)c5c(c4)n(C)c(=O)n5C)c3cc2F)cn1 | > 6.30 | < 5.30
17 | CC(C)c1cc(-n2c(C(C)(C)C)nc3cc(-c4cnn(C)c4)c(C(F)(F)F)cc32)cc2c1n(C)c(=O)n2C | 5.30 to 6.30 | < 5.30
18 | Cn1cc(-c2cc3nc(-c4cncn4C)n(-c4cc(NC5COC5)c5c(c4)n(C)c(=O)n5C)c3cc2F)cn1 | > 6.30 | < 5.30
19 | Cn1cc(-c2cc3nc(C(C)(C)C)n(-c4cc(N5CC(C)(NC(=O)OC(C)(C)C)C5)c5c(c4)n(C)c(=O)n5C)c3cc2C(F)F)cn1 | > 6.30 | < 5.30
20 | CCn1cc(-c2cc3nc(-c4cncn4C)n(-c4cc(NC(C)C)c5c(c4)n(C)c(=O)n5C)c3cc2F)cn1 | > 6.30 | 5.30 to 6.30
21 | Cn1cc(-c2cc3nc(C(C)(C)C)n(-c4ccc5c(c4)n(C)c(=O)n5C)c3cc2C(=O)O)cn1 | 5.30 to 6.30 | < 5.30
22 | Cn1cncc1-c1nc2cc(-c3cn[nH]c3)c(F)cc2n1-c1cc(N2CCOCC2)c2c(c1)n(C)c(=O)n2C | > 6.30 | < 5.30
23 | Cc1cccc(-c2nc3cc(-c4cnn(C)c4)c(C(F)F)cc3n2-c2cc(N3CC(C)(O)C3)c3c(c2)n(C)c(=O)n3C)c1C | > 6.30 | 5.30 to 6.30
24 | COCCNc1cc(-n2c(-c3cncn3C)nc3cc(-c4cnn(C)c4)c(F)cc32)cc2c1n(C)c(=O)n2C | 5.30 to 6.30 | < 5.30
25 | Cc1ccc2c(-c3nc4cc(-c5cnn(C)c5)c(C(=O)O)cc4n3-c3ccc4c(c3)n(C)c(=O)n4C)c[nH]c2c1 | > 6.30 | < 5.30
26 | Cn1cc(-c2cc3nc(-c4cncn4C)n(-c4cc(NCC5CCC5)c5c(c4)n(C)c(=O)n5C)c3cc2F)cn1 | > 6.30 | < 5.30

Other lines, results leading:

Row | pIC50 (CBP BRD protein) | pIC50 (BRD4 (BD1) protein) | SMILES
27 | > 6.30 | 5.30 to 6.30 | COc1cc2c(cc1-c1cnc(C)s1)nc(C(C)(C)C)n2-c1cc(N2CCC(C)(O)CC2)c2c(c1)n(C)c(=O)n2C
28 | > 6.30 | < 5.30 | Cn1cc(-c2cc3nc(C(C)(C)C)n(-c4cc(C5CCC(O)CC5)c5c(c4)n(C)c(=O)n5C)c3cc2C(F)F)cn1 (stereo not shown)
29 | > 6.30 | < 5.30 | Cn1cc(-c2cc3nc(C(C)(C)C)n(-c4cc(C5CCNCC5)c5c(c4)n(C)c(=O)n5C)c3cc2F)cn1
30 | > 6.30 | < 5.30 | Cn1cc(-c2cc3nc(C(C)(C)C)n(-c4cc(N5CCOCC5)c5c(c4)n(C)c(=O)n5C)c3cc2CF)cn1
31 | > 6.30 | 5.30 to 6.30 | COc1cc2c(cc1-c1cnn(C)c1)nc(C(C)(C)C)n2-c1cc(N2CCC(C)(O)CC2)c2c(c1)n(C)c(=O)n2C
32 | > 6.30 | < 5.30 | CC(=O)N1CCN(c2cc(-n3c(C(C)(C)C)nc4cc(-c5cnn(C)c5)c(C(F)F)cc43)cc3c2n(C)c(=O)n3C)CC1
33 | > 6.30 | < 5.30 | Cn1cc(-c2cc3nc(C(C)(C)C)n(-c4cc(N5CC(F)(F)C5)c5c(c4)n(C)c(=O)n5C)c3cc2C(F)(F)F)cn1
34 | > 6.30 | 5.30 to 6.30 | Cn1cc(-c2cc3nc(C(C)(C)C)n(-c4cc(N5CCC(C)(O)CC5)c5c(c4)n(C)c(=O)n5C)c3cc2C(F)(F)F)cn1
35 | > 6.30 | < 5.30 | Cn1cc(-c2cc3nc(C(C)(C)C)n(-c4cc(N5CC(C)(O)C5)c5c(c4)n(C)c(=O)n5C)c3cc2C#N)cn1
36 | > 6.30 | < 5.30 | COCc1cc2c(cc1-c1cnn(C)c1)nc(C(C)(C)C)n2-c1cc(N2CCOCC2)c2c(c1)n(C)c(=O)n2C
37 | > 6.30 | < 5.30 | Cn1cc(-c2cc3nc(C(C)(C)C)n(-c4cc(OCC5COC5)c5c(c4)n(C)c(=O)n5C)c3cc2F)cn1
38 | > 6.30 | < 5.30 | COc1cc2c(cc1-c1cnn(C)c1)nc(C(C)(C)C)n2-c1cc(N2CCC(O)CC2)c2c(c1)n(C)c(=O)n2C
39 | > 6.30 | < 5.30 | Cn1cc(-c2cc3nc(C(C)(C)C)n(-c4cc(N5CCOCC5)c5c(c4)n(C)c(=O)n5C)c3cc2CO)cn1
40 | > 6.30 | < 5.30 | Cn1cc(-c2cc3nc(C(C)(C)C)n(-c4cc(N5CCOCC5)c5c(c4)n(C)c(=O)n5C)c3cc2OC(F)F)cn1
41 | > 6.30 | < 5.30 | Cn1cc(-c2cc3nc(C(C)(C)C)n(-c4cc(N5CCNCC5)c5c(c4)n(C)c(=O)n5C)c3cc2C(F)F)cn1
